How the values were obtained:
SARS-CoV-2 nsp16/nsp10 = SARS-CoV-2 nsp16/nsp10 (Severe acute respiratory syndrome coronavirus 2, UniProt P0DTD1); type: biochemical
SARS-CoV-2 nsp14 = SARS-CoV-2 nsp14 (Severe acute respiratory syndrome coronavirus 2, UniProt P0DTD1); type: biochemical

For CNCCCN(CC[C@H](N)C(=O)O)C[C@H]1O[C@@H](n2cnc3c(N)ncnc32)[C@H](O)[C@@H]1O [ZINC000584905214], which “Percent inhibition at 100 μM, nsp16” value (SARS-CoV-2 nsp16/nsp10) is on record?
The value was 1 ±5%.

What about the “Percent inhibition at 100 μM, nsp14” value (SARS-CoV-2 nsp14) of the same molecule?
Its value is 22 ±5%.

From paper PMC8705538, “Discovery of SARS-CoV-2 Nsp14 and Nsp16 Methyltransferase Inhibitors by High-Throughput Virtual Screening” (Pharmaceuticals, 2021)
